# In publication PMC7337493 (The Journal of Cell Biology, 2020):
# Chains of the proteins cited; added tags and fusions are not shown. Lines headed by an entry give the natural chain unless they say otherwise; changes in a name come on top.
# UniProt O75385: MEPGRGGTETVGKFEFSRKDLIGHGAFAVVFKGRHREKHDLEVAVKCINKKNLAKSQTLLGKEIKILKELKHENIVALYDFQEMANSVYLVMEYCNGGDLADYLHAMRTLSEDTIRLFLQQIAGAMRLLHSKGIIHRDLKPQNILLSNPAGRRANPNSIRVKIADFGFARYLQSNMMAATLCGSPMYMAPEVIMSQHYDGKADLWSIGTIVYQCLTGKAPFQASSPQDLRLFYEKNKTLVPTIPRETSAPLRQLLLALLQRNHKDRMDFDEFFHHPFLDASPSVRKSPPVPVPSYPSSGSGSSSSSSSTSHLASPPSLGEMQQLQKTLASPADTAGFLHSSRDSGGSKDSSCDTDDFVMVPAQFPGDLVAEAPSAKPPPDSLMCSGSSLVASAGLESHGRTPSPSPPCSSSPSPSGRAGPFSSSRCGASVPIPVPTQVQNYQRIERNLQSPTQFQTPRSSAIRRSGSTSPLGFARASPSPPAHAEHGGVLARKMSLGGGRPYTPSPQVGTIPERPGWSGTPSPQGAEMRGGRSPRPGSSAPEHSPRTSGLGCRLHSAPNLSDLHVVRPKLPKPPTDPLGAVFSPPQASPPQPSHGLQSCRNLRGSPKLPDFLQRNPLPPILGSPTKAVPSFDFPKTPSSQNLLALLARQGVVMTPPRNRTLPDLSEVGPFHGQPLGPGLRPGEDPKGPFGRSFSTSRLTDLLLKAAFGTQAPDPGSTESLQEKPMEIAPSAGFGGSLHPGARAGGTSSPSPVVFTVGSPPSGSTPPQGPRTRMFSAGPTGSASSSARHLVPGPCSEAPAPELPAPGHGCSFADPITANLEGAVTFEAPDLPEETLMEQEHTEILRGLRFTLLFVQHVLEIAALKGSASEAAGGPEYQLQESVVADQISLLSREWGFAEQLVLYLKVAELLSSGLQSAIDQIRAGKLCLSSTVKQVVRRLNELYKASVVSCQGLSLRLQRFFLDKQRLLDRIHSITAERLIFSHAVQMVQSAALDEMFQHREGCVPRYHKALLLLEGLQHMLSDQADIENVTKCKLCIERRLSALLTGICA
# B1: FIP200NTD–MBP (domain or fragment, human, UniProt Q8TDY2 1-640, looked up)
# chain: MKLYVFLVNTGTTLTFDTELTVQTVADLKHAIQSKYKIAIQHQVLVVNGGECMAADRRVCTYSAGTDTNPIFLFNKEMILCDRPPAIPKTTFSTENDMEIKVEESLMMPAVFHTVASRTQLALEMYEVAKKLCSFCEGLVHDEHLQHQGWAAIMANLEDCSNSYQKLLFKFESIYSNYLQSIEDIKLKLTHLGTAVSVMAKIPLLECLTRHSYRECLGRLDSLPEHEDSEKAEMKRSTELVLSPDMPRTTNESLLTSFPKSVEHVSPDTADAESGKEIRESCQSTVHQQDETTIDTKDGDLPFFNVSLLDWINVQDRPNDVESLVRKCFDSMSRLDPRIIRPFIAECRQTIAKLDNQNMKAIKGLEDRLYALDQMIASCGRLVNEQKELAQGFLANQKRAENLKDASVLPDLCLSHANQLMIMLQNHRKLLDIKQKCTTAKQELANNLHVRLKWCCFVMLHADQDGEKLQALLRLVIELLERVKIVEALSTVPQMYCLAVVEVVRRKMFIKHYREWAGALVKDGKRLYEAEKSKRESFGKLFRKSFLRNRLFRGLDSWPPSFCTQKPRKFDCELPDISLKDLQFLQSFCPSEVQPFLRVPLLCDFEPLHQHVLALHNLVKAAQSLDEMSQTITDLLSEQK
# notes: FIP200 (RB1CC1), human, N-terminal domain, residues 1-640 of 1,594; also called FIP200(N-640)–MBP; FIP200-MBP; not shown: GST, N-terminal, cleaved; MBP, C-terminal, kept
# B2: FIP200NTD (domain or fragment, human, UniProt Q8TDY2 1-640, looked up)
# chain: B1 chain
# notes: FIP200 (RB1CC1), human, N-terminal domain, residues 1-640 of 1,594; the form printed without a tag in NSEM, MALS, HDX-MS and cryo-EM samples; also called FIP200 N-terminal domain; untagged FIP200NTD
# B3: GST-FIP200NTD (domain or fragment, human, UniProt Q8TDY2 1-640, looked up)
# chain: B1 chain
# notes: FIP200 (RB1CC1), human, N-terminal domain, residues 1-640; also called WT FIP200NTD; source: HEK 293-GnT1 suspension cells, transfected; not shown: GST, N-terminal, kept
# Columns and labels:
# Settings in all cases: both partners purified
# [1] = biological target: T1, MBP-ULK1:Strep-ATG13:Strep-ATG101 complex (human, UniProt O75385 1-1050; O75143 1-517; Q9BSB4 1-218); test: pull-down; Strep-Tactin resin loaded with MBP-ULK1:Strep-ATG13:Strep-ATG101; FIP200–MBP protein added at 200 nM, 4°C, gentle shaking; SDS-PAGE, Coomassie (Fig. 1 B)
# T1 construct: ULK1, human; ATG13, human; ATG101, human; also called ternary ULK1:ATG13:ATG101 complex; ULK1:ATG13:ATG101; not shown: MBP, N-terminal, kept; TwinStrep-Flag (printed as Strep), N-terminal, kept; copies: + +
# [2] = biological target: T2, MBP-ATG13:MBP-ATG101 complex (human, UniProt O75143 1-517; Q9BSB4 1-218); test: negative stain EM; purified samples diluted to ~50–200 nM, uranyl acetate stain, 2D classification; MBP tags used to mark positions
# T2 construct: ATG13, human; ATG101, human; also called dual MBP-tagged HORMA domains; source: HEK 293-GnT1 suspension cells, transfected, purified in complex with FIP200NTD and ULK1 EAT; not shown: MBP, N-terminal, kept
# T2 sequence (looked up) 1: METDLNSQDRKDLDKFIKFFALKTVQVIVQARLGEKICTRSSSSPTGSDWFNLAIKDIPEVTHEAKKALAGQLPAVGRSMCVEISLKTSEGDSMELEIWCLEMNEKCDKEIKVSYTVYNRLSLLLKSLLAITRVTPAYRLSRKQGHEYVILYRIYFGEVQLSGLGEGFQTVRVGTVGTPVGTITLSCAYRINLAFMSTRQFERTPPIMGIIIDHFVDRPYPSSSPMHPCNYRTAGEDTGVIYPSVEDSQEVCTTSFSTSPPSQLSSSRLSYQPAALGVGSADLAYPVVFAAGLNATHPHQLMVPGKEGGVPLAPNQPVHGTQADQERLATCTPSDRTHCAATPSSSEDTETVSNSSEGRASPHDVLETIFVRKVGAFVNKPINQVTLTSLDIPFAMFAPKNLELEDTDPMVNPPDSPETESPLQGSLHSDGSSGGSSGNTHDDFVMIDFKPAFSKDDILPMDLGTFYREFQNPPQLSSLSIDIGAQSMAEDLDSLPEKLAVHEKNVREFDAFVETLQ
# T2 sequence (looked up) 2: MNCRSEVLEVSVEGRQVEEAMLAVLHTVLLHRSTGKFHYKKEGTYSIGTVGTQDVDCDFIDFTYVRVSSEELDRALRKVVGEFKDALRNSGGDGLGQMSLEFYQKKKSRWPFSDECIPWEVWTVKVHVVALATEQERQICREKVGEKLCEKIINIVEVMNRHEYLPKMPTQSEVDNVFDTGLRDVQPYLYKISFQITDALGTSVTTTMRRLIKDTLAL
# ATG13-MBP:ATG101 complex = biological target: T3, ATG13-MBP:ATG101 complex (human, UniProt O75143 1-517; Q9BSB4 1-218); test: as above
# T3 construct: ATG13, human; ATG101, human; source: HEK 293-GnT1 suspension cells, transfected, purified in complex with FIP200NTD and ULK1 EAT–MBP; not shown: MBP, C-terminal, kept
# T3 sequence (looked up) 1: T2 sequence (looked up) 1
# T3 sequence (looked up) 2: T2 sequence (looked up) 2
# [3] = biological target: T4, Strep-ATG13:Strep-ATG101 complex (human, UniProt O75143 1-517; Q9BSB4 1-218); test: as above
# T4 construct: ATG13, human; ATG101, human; also called ATG13:ATG101; ATG13:ATG101 subcomplex; source: HEK 293-GnT1 suspension cells, transfected; not shown: TwinStrep-Flag (printed as Strep), N-terminal, kept; copies: 1 + 1
# T4 sequence (looked up) 1: T2 sequence (looked up) 1
# T4 sequence (looked up) 2: T2 sequence (looked up) 2
# [4] = biological target: T4, Strep-ATG13:Strep-ATG101 complex; test: pull-down; GSH resin loaded with GST-FIP200NTD; MBP-ULK1 or Strep-ATG13:Strep-ATG101 added alone; 200 nM; 20 mM Hepes pH 8.0, 200 mM NaCl, 1 mM TCEP, 5 mM desthiobiotin, 1% Triton-X-100; SDS-PAGE, Coomassie (Fig. 2 A)
binder,measurement,setting,value
B1,binding result,[1],binds
B2,binding result,[2],binds
same,binding result,ATG13-MBP:ATG101 complex,binds
same,binding result,[3],binds
B3,binding result,[4],binds
